PMC7723054
The list shows a part of the results.

T1: LIN28A (human?, UniProt Q9H9Z2 1-209)
T1 sequence: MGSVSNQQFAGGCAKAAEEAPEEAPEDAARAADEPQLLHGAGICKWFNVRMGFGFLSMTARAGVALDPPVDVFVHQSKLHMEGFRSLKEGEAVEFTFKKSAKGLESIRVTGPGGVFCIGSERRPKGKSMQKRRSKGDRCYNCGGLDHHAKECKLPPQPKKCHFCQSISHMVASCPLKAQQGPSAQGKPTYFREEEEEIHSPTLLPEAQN

T2: CIRBP (Homo sapiens, UniProt Q14011 1-172)
T2 sequence: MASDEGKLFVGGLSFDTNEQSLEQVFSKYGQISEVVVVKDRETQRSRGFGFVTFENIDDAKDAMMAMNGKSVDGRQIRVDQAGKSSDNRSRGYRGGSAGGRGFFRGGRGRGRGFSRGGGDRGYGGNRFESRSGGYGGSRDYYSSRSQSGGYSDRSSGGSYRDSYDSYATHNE

T3: DHX36 (Homo sapiens, UniProt Q9H2U1 1-1008)
T3 sequence: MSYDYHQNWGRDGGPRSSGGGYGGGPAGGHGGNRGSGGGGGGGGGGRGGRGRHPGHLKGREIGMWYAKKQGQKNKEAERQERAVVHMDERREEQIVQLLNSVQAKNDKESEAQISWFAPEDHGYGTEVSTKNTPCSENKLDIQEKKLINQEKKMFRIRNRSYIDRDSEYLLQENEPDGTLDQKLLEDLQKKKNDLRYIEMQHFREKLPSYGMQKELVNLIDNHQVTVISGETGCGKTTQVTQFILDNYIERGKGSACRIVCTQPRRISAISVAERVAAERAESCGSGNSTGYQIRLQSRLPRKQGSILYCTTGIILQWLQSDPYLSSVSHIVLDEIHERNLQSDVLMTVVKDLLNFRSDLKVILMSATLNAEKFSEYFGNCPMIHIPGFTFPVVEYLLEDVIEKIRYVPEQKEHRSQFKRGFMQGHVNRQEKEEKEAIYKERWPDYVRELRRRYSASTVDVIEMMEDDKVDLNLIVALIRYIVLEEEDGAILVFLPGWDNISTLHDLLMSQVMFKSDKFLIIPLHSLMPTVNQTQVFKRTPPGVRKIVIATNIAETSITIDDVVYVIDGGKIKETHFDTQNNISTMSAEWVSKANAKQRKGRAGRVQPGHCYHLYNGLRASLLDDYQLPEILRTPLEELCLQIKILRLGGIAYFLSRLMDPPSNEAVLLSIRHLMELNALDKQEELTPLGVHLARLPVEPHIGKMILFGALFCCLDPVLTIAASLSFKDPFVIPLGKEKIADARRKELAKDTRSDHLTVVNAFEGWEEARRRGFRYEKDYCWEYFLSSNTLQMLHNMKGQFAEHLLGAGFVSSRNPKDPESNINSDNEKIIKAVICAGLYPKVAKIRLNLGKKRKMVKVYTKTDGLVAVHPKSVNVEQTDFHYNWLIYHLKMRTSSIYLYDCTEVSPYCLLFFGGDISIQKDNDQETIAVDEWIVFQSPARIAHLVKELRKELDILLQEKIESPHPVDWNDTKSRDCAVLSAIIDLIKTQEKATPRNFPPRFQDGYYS

B1: hsa-mir-1182 (structured_RNA)
RNA: GGGACGACAUAGGACGCAUCCUUCACCGGGUGUACGAAGUUUCAGCAUUCUGGAGUCCAUCUAGAGGCUGAAGCUUCGUGCAC
B2: hsa-mir-4262 (structured_RNA)
RNA: GGGACACUGGAGGGCAACCUACUCCACUGGUGUACGAAGUUUCAGCUGUUGGGGGGACAGCUGAAGCUUCGUGCAC
B3: NEAT1_ParasoR_ID36 (structured_RNA)
RNA: GGGAAGACGCGGUAAUACCAUAGUCAGCGGUGUACGAAGUUUCAGCAAUGACAACUUCAUUGCUGAAGCUUCGUGCAC
B4: hsa-mir-137 (structured_RNA)
RNA: GGGAAUAGGUGGGCCUGACAACUUCCGAGGUGUACGAAGUUUCAGCAUAAUACGGAUUACGUUGUUAGCUGAAGCUUCGUGCAC
B5: hsa-mir-6771 (structured_RNA)
RNA: GGGAAGAUAGCAGGUUCCCUCAUCGCCCGGUGUACGAAGUUUCAGCCCAGGCCACAUAAUGAGCCAAAGCUGAAGCUUCGUGCAC
B6: hsa-mir-508 (structured_RNA)
RNA: GGGAAGGUGCGUUCGACCCAUCACCUAAGGUGUACGAAGUUUCAGCCUCAUGUAAACUAAAACAUGAUGCUGAAGCUUCGUGCAC
B7: hsa-mir-451a (structured_RNA)
RNA: GGGAGCUGGUGACCCCGUGUACGUCUUAGGUGUACGAAGUUUCAGCUGAGUUUAGCUGAAGCUUCGUGCAC
B8: hsa-mir-3194 (structured_RNA)
RNA: GGGAUCGCUGCCUGUUUUAGUGUUGCCCGGUGUACGAAGUUUCAGCGGCUGCGUGCCACCCGGGCAGCUGCUGAAGCUUCGUGCAC
B9: hsa-mir-4304 (structured_RNA)
RNA: GGGAGCUACUUGCAACACUUCACCAGCCGGUGUACGAAGUUUCAGCGGCAUCCCCAUUGCUGCUGAAGCUUCGUGCAC
B10: hsa-mir-4456 (structured_RNA)
RNA: GGGAAAGCCGGUCACGACGUUCAUAAUAGGUGUACGAAGUUUCAGCUUUUCUGGGAGCUGAAGCUUCGUGCAC
B11: hsa-mir-3713 (structured_RNA)
RNA: GGGAGAACUGUCUCCACGCUCACUAAGCGGUGUACGAAGUUUCAGCUGGUUUCACUAGCUGAAGCUUCGUGCAC
B12: hsa-mir-663a (structured_RNA)
RNA: GGGAAGCUUUAUGGGGCUAUCAGGCCUCGGUGUACGAAGUUUCAGCCCGCCCUCGUGUCUGUGGCGGUGGGCUGAAGCUUCGUGCAC
B13: hsa-mir-558 (structured_RNA)
RNA: GGGAGGCCGUUCAAGUCUCUACCUGCAUGGUGUACGAAGUUUCAGCCUCUAGACUCUAUUAUAGUUUCCUGAGGCUGAAGCUUCGUGCAC
B14: NEAT1_ParasoR_ID25 (structured_RNA)
RNA: GGGACUGCAGAGCAACCUAUACCAAUGGGGUGUACGAAGUUUCAGCCAGCUCCAUCCAAAAUUGCUGGCUGAAGCUUCGUGCAC
B15: hsa-mir-4666b (structured_RNA)
RNA: GGGAGAUCGGGCCUAAUGAAGUAGUAUUGGUGUACGAAGUUUCAGCUCCCAGGCCCUUCCUCCAAUACUGGGAGCUGAAGCUUCGUGCAC
B16: hsa-mir-7641-2 (structured_RNA)
RNA: GGGACGAACGUGAGGACUGCCACUAACUGGUGUACGAAGUUUCAGCAAGCAGGGUCGGGCCUGGUUGCUGAAGCUUCGUGCAC
B17: hsa-mir-4420 (structured_RNA)
RNA: GGGACCGGACGGUAUUUACACUGCAUCCGGUGUACGAAGUUUCAGCUGUUCAUGUCUCUCUGUGCACAGGGGACGAGAGUCAGCUGAAGCUUCGUGCAC
B18: hsa-mir-4530 (structured_RNA)
RNA: GGGACAGAGUGCUUAUACUCUCAGGGCGGGUGUACGAAGUUUCAGCUGGGUCAAGGAGCCCAGCUGAAGCUUCGUGCAC
B19: hsa-mir-1183 (structured_RNA)
RNA: GGGAGAACACAAUGCAAUUAGGGCGCAUGGUGUACGAAGUUUCAGCAGGAGUUCACUGCUGAAGCUUCGUGCAC
B20: hsa-mir-323b (structured_RNA)
RNA: GGGAAACACAGGACGAACGUGCUAAAUCGGUGUACGAAGUUUCAGCUUCGCAUUAUUUAAUGAUGCCCAGCUGAAGCUUCGUGCAC
B21: hsa-mir-664a (structured_RNA)
RNA: GGGACAUCGAAACGCCGACACAAACACCGGUGUACGAAGUUUCAGCGGAUAGAAACUAUUAUUCUAUUCGCUGAAGCUUCGUGCAC
B22: hsa-mir-1913 (structured_RNA)
RNA: GGGAAUCGGCAUGUCGAGACACGUCAGUGGUGUACGAAGUUUCAGCCAGAGGCUGGCUUUCCAAAACUCUGGCUGAAGCUUCGUGCAC
B23: hsa-mir-543 (structured_RNA)
RNA: GGGAACAAGUAGAGCCGGCCCUAUACGUGGUGUACGAAGUUUCAGCUUUUUUUCGCUUUAUUUGUGACGAAACGCUGAAGCUUCGUGCAC
B24: hsa-mir-6719 (structured_RNA)
RNA: GGGAAACUAAGGCUGUCUCACUCUCAGGGGUGUACGAAGUUUCAGCCUUCAGAGCAGGGUUUGGUCUGUGCUUCUCUGGCUGAAGCUUCGUGCAC
B25: hsa-mir-548az (structured_RNA)
RNA: GGGAGAAGACGAUGGAUGAUAUCGAUCUGGUGUACGAAGUUUCAGCUUUUGCUGUUACUUUUAAUGGCAAAAGCUGAAGCUUCGUGCAC
B26: hsa-mir-378b (structured_RNA)
RNA: GGGAAAUCGAUAACGUCGACCGAGCAUUGGUGUACGAAGUUUCAGCUAGUGGAAAGAGCACUGGCUGAAGCUUCGUGCAC

target: T1, LIN28A; test: FOREST: bead pull-down of RNA structure library v1, barcode microarray; U1A/LIN28A: 20 mM HEPES pH 7.5, 80 mM KCl, 20 mM NaCl, 10% glycerol, 2 mM DTT, 0.1 ug/uL BSA, 4 C; BG4/CIRBP/DHX36: 10 mM Tris-HCl pH 7.5, 100 mM KCl (or LiCl),; high values mean tight binding

Row | Binder | binding signal [z-score]
1 | B1 | -1.92
2 | B2 | -1.93
3 | B3 | -1.94
4 | B4 | -1.94
5 | B5 | -1.94
6 | B6 | -1.96
7 | B7 | -1.96
8 | B8 | -1.96
9 | B9 | -1.96
10 | B10 | -1.99
11 | B11 | -1.99
12 | B12 | -1.99
13 | B13 | -2.01
14 | B14 | -2.01
15 | B15 | -2.03
16 | B16 | -2.03
17 | B17 | -2.05
18 | B18 | -2.12
19 | B19 | -2.12
20 | B20 | -2.15
21 | B21 | -2.18
22 | B22 | -2.21
23 | B23 | -2.28
24 | B24 | -2.29
25 | B25 | -2.31
26 | B26 | -2.33

target: T2, CIRBP; test: as above

Row | Binder | binding signal [z-score]
27 | B1 | -0.941
28 | B2 | -0.314
29 | B3 | -0.737
30 | B4 | -0.838
31 | B5 | -0.477
32 | B6 | -0.705
33 | B7 | -0.294
34 | B8 | -0.853
35 | B9 | -0.891
36 | B10 | -0.696
37 | B11 | -0.194
38 | B12 | -0.753
39 | B13 | -1.56
40 | B14 | -1.08
41 | B15 | -0.721
42 | B16 | -1.49
43 | B17 | -1.82
44 | B18 | -0.375
45 | B19 | -0.681
46 | B20 | 0.205
47 | B21 | -1.13
48 | B22 | -0.65
49 | B23 | -0.589
50 | B24 | -0.952
51 | B25 | -0.229
52 | B26 | -0.581

target: T3, DHX36; test: as above

Row | Binder | binding signal [z-score]
53 | B1 | -1.28
54 | B2 | 0.764
55 | B3 | -1.45
56 | B4 | -1.15
57 | B5 | -0.00733
58 | B6 | -1.31
59 | B7 | -1.5
60 | B8 | -0.412
61 | B9 | -0.453
62 | B10 | -1.43
63 | B11 | -1.21
64 | B12 | -0.396
65 | B13 | -1.59
66 | B14 | -0.155
67 | B15 | -0.321
68 | B16 | -0.652
69 | B17 | -1.21
70 | B18 | -0.702
71 | B19 | -0.622
72 | B20 | -2.05
73 | B21 | -1.89
74 | B22 | -2.17
75 | B23 | -0.727
76 | B24 | -1.49
77 | B25 | -0.357
78 | B26 | -0.775
